The source of these data is BindingDB's records for doi:10.1016/j.bioorg.2016.07.013 (Shenyang Pharmaceutical University, 2016).

Amino acid sequences for entries named in this document (tags omitted).
UniProt P06276, whole entry: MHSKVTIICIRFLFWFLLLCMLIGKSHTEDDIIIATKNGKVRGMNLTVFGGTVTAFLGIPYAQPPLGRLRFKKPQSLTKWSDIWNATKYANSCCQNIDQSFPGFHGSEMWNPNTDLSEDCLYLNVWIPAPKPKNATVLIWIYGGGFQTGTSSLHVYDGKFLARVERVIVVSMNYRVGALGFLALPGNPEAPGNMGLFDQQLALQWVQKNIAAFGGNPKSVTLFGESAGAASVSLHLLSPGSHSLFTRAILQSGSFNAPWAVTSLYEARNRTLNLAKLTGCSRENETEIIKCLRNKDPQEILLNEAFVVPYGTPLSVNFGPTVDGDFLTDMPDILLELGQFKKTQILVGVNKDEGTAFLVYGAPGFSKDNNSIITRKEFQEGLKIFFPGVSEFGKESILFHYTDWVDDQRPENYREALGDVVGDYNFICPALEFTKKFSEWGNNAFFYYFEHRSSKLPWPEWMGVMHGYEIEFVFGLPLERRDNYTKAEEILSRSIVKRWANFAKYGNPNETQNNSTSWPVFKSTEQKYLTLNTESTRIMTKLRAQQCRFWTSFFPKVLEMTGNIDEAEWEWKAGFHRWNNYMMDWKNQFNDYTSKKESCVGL

The target in the assay is Cholinesterase (Homo sapiens, UniProt P06276). Nature of the assay: AChE and BuChE Inhibition Assay. The note with it: pH 8. Here is the method: The reaction mixture was consisted of 100 µL of the total volume.

Molecules are shown by their SMILES.

`CC(C)NP(=O)(NC(C)C)OP(=O)(NC(C)C)NC(C)C` [({[bis(propan-2-ylamino)phosphoryl]oxy}(propan-2-ylamino)phosphoryl)(propan-2-yl)amine] gave a concentration for half-maximal inhibition (IC50) of 134 nM.

In general, IC50 refers to the point on the concentration scale where inhibition reaches its midpoint. Read a low IC50 as inhibition by little substance.
